Where two headings read alike, the source gives them in different places.
Biological target: T1, mUSP18 (Mus musculus, UniProt Q9WTV6)
T1 construct: (46-368); His-tag (N); made in house
T1 sequence (Q9WTV6 46-368): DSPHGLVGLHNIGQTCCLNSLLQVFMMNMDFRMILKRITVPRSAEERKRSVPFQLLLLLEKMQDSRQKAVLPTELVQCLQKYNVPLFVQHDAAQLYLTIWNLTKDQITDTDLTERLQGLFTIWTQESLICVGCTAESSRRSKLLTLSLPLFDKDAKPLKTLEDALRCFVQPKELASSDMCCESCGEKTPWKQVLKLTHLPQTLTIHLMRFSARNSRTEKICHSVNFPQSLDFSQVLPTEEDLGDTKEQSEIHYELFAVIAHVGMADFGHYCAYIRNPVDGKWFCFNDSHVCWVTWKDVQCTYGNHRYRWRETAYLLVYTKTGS
Assay: High-throughput screening, ISG15ct-RhoMP, single dose 1.25 µM
Assay type: biochemical, murine

Structure (SMILES): CCCCNc1ccc(C(=O)O)cc1 [CA047]
- inhibition at 1.25 µM (read-out: %inh CA + DIC/HOBT): 40.1%
- inhibition at 1.25 µM (read-out: %inh CA only): 2.72%

Reference: paper PMC12668310, “High‐Throughput Synthesis and Screening of a Cyanimide Library Identifies Selective Inhibitors of ISG15‐Specific Protease mUSP18” (Angewandte Chemie (International Ed. in English), 2025)
